Literature values in patent US11717549B2, “Steviol glycoside solubility enhancers” (CARGILL, INCORPORATED, priority 2017, dated 2023).
Only a part of the results on these compounds is given; other tests are left out.

Conditions: temperature 23 ° C.; cited from earlier work

For `O=C(O)c1c([N+](=O)[O-])cc([N+](=O)[O-])cc1[N+](=O)[O-]`, the “solubility (ppm)” value is listed as 1.97E+04 ppm.
